# Experimental data published in patent US4469706A, “Selective beta-2 adrenergic antagonists for the treatment of glaucoma” (priority 1982, dated 1984).
# Biological target: rabbit ciliary process adenylate cyclase (Oryctolagus cuniculus, UniProt G1TAV7)
# Assay: Rabbit ciliary process beta-adrenergic sensitive adenylate cyclase activity
compound,measurement,setting,value
CC(C)NCC(O)c1ccc(O)c(O)c1 (stereo not drawn) [Isoproterenol],pEC50,,6.44
same,"Adenylate Cyclase Ka, Ciliary Process Rabbit (B)","agonists, Table I",0.36 µM
same,"Maximal stimulation of ciliary process enzyme activity, of basal activity",rabbit,331±44%

# pEC50: −log10 of the molar value.
